## Yeast mating assay B: variants of the scFv Ab-14

Reference: Li et al. 2023, doi:10.1038/s41467-023-39022-2. File: FLAb, binding data.

Antigen: PDVDLGDISGINAS, a 14-residue peptide of the SARS-CoV-2 spike HR2 region.

Ab-14 is the parent antibody, in scFv form: VH, then a (GGGGS)3 linker, then VL. The light chain is unchanged in all variants.
VH: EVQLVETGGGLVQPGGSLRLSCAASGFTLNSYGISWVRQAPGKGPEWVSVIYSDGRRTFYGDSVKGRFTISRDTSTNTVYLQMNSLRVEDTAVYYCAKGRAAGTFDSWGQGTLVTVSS
VL: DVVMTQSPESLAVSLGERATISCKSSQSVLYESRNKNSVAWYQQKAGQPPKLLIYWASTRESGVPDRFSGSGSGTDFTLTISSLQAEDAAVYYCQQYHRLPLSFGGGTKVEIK

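The starting antibody came from a phage panning campaign against this peptide. The variants were designed computationally from a first round of random CDR variants and then made and measured. Several design methods are mixed in this list. The scFvs were displayed on barcoded MATa yeast, the peptide on MATalpha yeast. After mating in shaken culture at 30 °C for 16 h, diploids were selected and their barcode pairs sequenced. A regression on co-assayed BCL2-family reference pairs converts the normalised counts of each replicate to an apparent Kd. There are six technical replicates.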

Each variant is given by its three heavy chain CDRs, as the data file delimits them; those of the parent are GFTLNSYGIS, VIYSDGRRTFYGDSVK, GRAAGTFDS.
This list holds designs with more than six substitutions.
Scale: log10 of Kd in nM, estimated from mating counts; low values are strong binders.
Averages over replicates are reported, and they cover detected replicates only.
"nd" marks a missing value. The strain was present, yet no cells mated with the target were sequenced in that replicate, which points to weak or no binding.
Background: pairings of all heavy chain designs with three empty control strains gave a value in 1% of cases (median 2.08, 5th percentile 0.84). Values in that range, when seen in few replicates, are hard to tell from nonspecific mating.

* GNSLDEYGIS / VIYADGMRTAYTDDVK / GVVSMTLVD = nd, nd, nd, nd, nd, nd
* GFDLNEYGIS / VIYADGMRTFYDDSVK / GQLAGTFDI = 0.12, -0.70, -0.94, -0.55, -0.66, -0.66 (mean -0.56)
* GFDLDEYGVS / VIYADGERTFYQDKVK / GTHGGTRDL = 1.57, 2.53, 2.05, 2.94, 2.12, 2.60 (mean 2.30)
* GFDLDEYGIS / VIYADGQRTAYADNVK / GQVAGTFDV = -0.55, -0.05, -0.80, 0.37, 0.01, 1.30 (mean 0.05)
* GFDLNEYGIS / VIYADGRRTFYTDSVK / GQNAGTFDM = 0.62, nd, nd, 0.99, 0.90, 0.71 (mean 0.81)
* GFDLNEYGIS / VIYADGSRTAYTDSVK / GNQAGTFDV = -0.73, -0.38, -0.22, -0.64, -0.55, -0.75 (mean -0.55)
* GFDLNEYGIS / VIYADGRRTFYIDSVK / GNEAGTFDV = -0.02, -0.28, -0.45, -0.49, -0.55, -0.12 (mean -0.32)
* GFDLNEYGIS / VIYADGQRKAYADSVK / GNVAGTFDQ = -0.73, -0.81, -1.05, -0.90, -0.99, -0.71 (mean -0.86)
* GFNINEYGIS / VIYADGKRTAYSESVK / GNSAGTFNH = 0.06, -0.19, -0.23, -0.19, -0.08, -0.04 (mean -0.11)
* GFDLEEYGIS / VIYADGMRTAYADSVK / GNVAGTFDT = -0.17, -0.45, -0.33, -0.53, -0.40, -0.25 (mean -0.36)
* GFNLNEYGIS / VIYADGQRTFYADSVK / GQQAGTFDM = 1.81, 0.70, 0.52, 0.46, 0.58, 1.09 (mean 0.86)
* GFSLDEYGIS / VIYADGRRTAYADSVK / GNVAGTFDS = nd, nd, nd, nd, nd, nd
* GFDLDEYGIS / VIYADGMRTAYTDSVK / GEVAGTFDV = -0.12, 0.09, 0.49, -0.06, 0.03, 0.18 (mean 0.10)
* GFDLNEYGIS / VIYADGMRTYYADSVK / GSNAGTFDV = -0.18, -0.03, -0.43, -0.30, -0.02, -0.10 (mean -0.18)
* GFNLDEYGIS / VIYADGRRTFYSDNVK / GETAGTFDI = -0.66, -0.51, -0.68, -0.88, -0.67, -0.51 (mean -0.65)
* GFDLNEYGIS / VIYADGMRTFYADNVK / GETAGTFDV = -0.35, -0.41, -0.21, -0.61, -0.22, -0.02 (mean -0.30)
* GFDLNEYGIS / VIYADGVRVAYQNQVK / GNIIGSFTF = nd, nd, nd, nd, nd, nd
* GFDLNEYGIS / VIYADGKRTAYAESVK / GNVAGTFDL = -0.24, 0.35, 0.04, -0.35, 0.64, -0.37 (mean 0.01)
* GFDLDEYGIS / VIYADGMRTAYADSVK / GTNAGTFDL = -0.29, -0.17, -0.31, -0.67, -0.20, -0.29 (mean -0.32)
* GFDLNEYGIS / VIYADGVRTFYADNVK / GEVAGTFDV = 0.20, -0.25, 0.09, -0.41, 0.40, 0.89 (mean 0.15)
* GFGIDEYGIS / VIYADGRRTFYSDDVK / GNMIVTFVD = 0.12, 0.27, 0.04, -0.38, -0.47, 0.50 (mean 0.01)
* GFDLNEYGIS / VIYADGRRTAYIDSVK / GHAAGTFDI = -0.30, -0.40, -0.61, -0.62, -0.36, -0.39 (mean -0.45)
* GFDLNEYGIS / VIYADGRRTFYADNVK / GEVAGTFDS = 0.22, -0.12, -0.45, -0.19, -0.15, -0.08 (mean -0.13)
* GFDLNEYGIS / VIYADGRRTFYADSVK / GQTAGTFDQ = -0.03, -0.32, -0.65, -0.56, -0.77, -0.33 (mean -0.44)
* GFDINEYGIS / VIYADGQRVAYTNSFK / GTQAGQFIN = nd, nd, nd, nd, nd, 2.12
* GFDLNEYGIS / VIYADGMRTVYADSVK / GNTAGTFDV = 0.67, nd, -0.15, -0.45, -0.02, 0.93 (mean 0.20)
* GFDLDEYGIS / VIYADGRRTFYQDSVK / GQSAGTFDQ = 1.09, nd, nd, 0.06, -0.17, 1.50 (mean 0.62)
* GFDLDEYGIS / VIYADGSRTAYSDSVK / GNQAGTFDV = 1.41, 0.73, 1.28, 1.63, 1.01, 0.62 (mean 1.11)
* GFNLDEYGIS / VIYADGMRTAFGDNVK / GTNFGDFVF = nd, nd, nd, nd, nd, nd
* GFDLDEYGIS / VIYADGVRTAYADSVK / GENAGTFDM = 0.13, -0.45, -0.13, -0.68, -0.68, -0.52 (mean -0.39)
* GFDLQEYGIS / VIYADGHRTAYIQKVK / GQIAGGQFD = nd, nd, nd, 3.87, nd, nd
* GFDLEEYGIS / VIYADGMRTFYSDSVK / GEAAGTFDS = 0.40, 0.77, 0.19, 0.18, 1.74, 0.88 (mean 0.69)
* GADLNEYGIS / VIYADGRQVYYENSFK / GHVAGTFDS = 2.81, nd, 1.35, 1.26, 1.41, nd (mean 1.71)

A selection of 5 entries from above:

CDR-H1,CDR-H2,CDR-H3,"replicates, log10 nM","log10 Kd (nM), mean"
GFNINEYGIS,VIYADGKRTAYSESVK,GNSAGTFNH,"0.06, -0.19, -0.23, -0.19, -0.08, -0.04",-0.11
GNSLDEYGIS,VIYADGMRTAYTDDVK,GVVSMTLVD,"nd, nd, nd, nd, nd, nd",nd
GFDLDEYGIS,VIYADGSRTAYSDSVK,GNQAGTFDV,"1.41, 0.73, 1.28, 1.63, 1.01, 0.62",1.11
GFDLNEYGIS,VIYADGVRTFYADNVK,GEVAGTFDV,"0.20, -0.25, 0.09, -0.41, 0.40, 0.89",0.15
GADLNEYGIS,VIYADGRQVYYENSFK,GHVAGTFDS,"2.81, nd, 1.35, 1.26, 1.41, nd",1.71

The range of this assay differs from that of the first round, and the authors advise against merging the two.
Of ten entries with the parent sequence, four were seen in most replicates (averages 0.34 to 2.37), three in one and three in none, so single entries are noisy.
The authors' rule: three or more of the six replicates give a measured affinity, fewer mean a poor binder.